The values that follow come from ChEMBL document CHEMBL1121425, “4-Amino-4-arylcyclohexanones and their derivatives, a novel class of analgesics. 1. Modification of the aryl ring” (1980).

The ED50 is the midpoint of the dose-response relation. High values mean a need for a large dose, low ones an effect at a small dose.

Assay [1] is filed under the species Mus musculus. Put plainly: Tested for analgesic activity using tail pinch assay in mice.
The species named for assay [2] is Mus musculus. Description: Tested for analgesic activity using HCl writhe assay in mice in mice.
For assay [3], the species on record is Mus musculus. Description: Tested for analgesic activity using tail flick assay in mice. (Hot-plate and tail-flick tests time the reaction to a heat stimulus.)

Regarding `Cc1ccccc1C1(N(C)C)CCC(=O)CC1`, the ED50 in the assay listed under Mus musculus [1], in the assay listed under Mus musculus [2] and in the assay listed under Mus musculus [3] was 63 mg/kg throughout.

For `CN(C)C1(c2ccccc2Cl)CCC(=O)CC1`, the 50% effective dose (ED50) stood at 35 mg/kg in the assay filed under Mus musculus [1], 20 mg/kg in the assay listed under Mus musculus [2] and 22 mg/kg in the assay listed under Mus musculus [3].

Regarding `CN(C)C1(c2cccs2)CCC(=O)CC1`, the results for the median effective dose (ED50) in the assay filed under Mus musculus [1], in the assay listed under Mus musculus [2] and in the assay listed under Mus musculus [3] were 63 mg/kg, 32 mg/kg and 63 mg/kg, respectively.

The compound `CN(C)C1(c2ccc(Cl)cc2Cl)CCC(=O)CC1` showed an ED50 in the assay listed under Mus musculus [2] of 71 mg/kg.
